Data published in US5175158A, “Condensed diazepinones, processes for preparing them and pharmaceutical compositions containing these compounds” (Dr. Karl Thomae, GmbH, priority 1987, dated 1992).

Target: muscarinic receptors (cerebral cortex)
Assay: Receptor binding test in vitro, cerebral cortex (3H-N-methylscopolamine displacement)
Parameters: species or system rat (male Sprague-Dawley)
Details: 0.3 nanomolar 3H-NMS, 30° C., 45 minutes, pH 7.4

CCN(CC)CC1CCCCN1CC(=O)N1c2ccccc2C(=O)Nc2cccnc21 (stereo not shown) [Substance E, 11-[[2-[(diethylamino)methyl]-1-piperidinyl]acetyl]-5,11-dihydro-6H-pyrido [2,3-b][1,4]benzodiazepin-6-one, reference compound]
IC50: 1.2 µM
